# Reference: US8222219B2, “Glucopyranoside compound” (Mitsubishi Tanabe Pharma Corporation, priority 2003, dated 2012)
# Molecular target: T1, human SGLT2 (Homo sapiens, UniProt P31639)
# T1 construct: expressed in transfected cells; host or cells: CHOK1 (CHO-K1) cells, kept under Geneticin selection
# T1 sequence (P31639 1-672): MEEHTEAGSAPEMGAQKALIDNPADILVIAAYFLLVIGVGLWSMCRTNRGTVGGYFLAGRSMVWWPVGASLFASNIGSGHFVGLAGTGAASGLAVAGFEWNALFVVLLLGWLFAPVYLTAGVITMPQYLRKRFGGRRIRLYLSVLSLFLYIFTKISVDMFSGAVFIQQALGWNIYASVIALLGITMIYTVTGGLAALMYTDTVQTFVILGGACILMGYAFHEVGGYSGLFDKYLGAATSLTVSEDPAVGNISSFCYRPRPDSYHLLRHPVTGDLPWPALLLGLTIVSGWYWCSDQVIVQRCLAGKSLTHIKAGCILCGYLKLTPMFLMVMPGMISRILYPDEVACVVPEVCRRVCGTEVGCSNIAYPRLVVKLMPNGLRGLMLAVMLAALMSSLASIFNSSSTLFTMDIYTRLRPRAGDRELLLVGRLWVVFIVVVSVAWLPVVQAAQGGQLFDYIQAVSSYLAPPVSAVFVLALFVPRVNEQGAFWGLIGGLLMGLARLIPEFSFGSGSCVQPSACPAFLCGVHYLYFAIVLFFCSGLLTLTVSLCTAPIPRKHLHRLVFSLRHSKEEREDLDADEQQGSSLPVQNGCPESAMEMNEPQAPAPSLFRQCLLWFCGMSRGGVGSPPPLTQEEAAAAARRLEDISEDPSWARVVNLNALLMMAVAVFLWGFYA
# Test: Assay for SGLT2 inhibition (14C-AMG uptake in CHOK1 cells expressing human SGLT2)
# Type: cell-based
# Settings: 14C-AMG uptake 0.5 mM, 2 hours at 37° C.
# Experimental: 1. Assay for SGLT2 Inhibition
# Compounds described in the above examples were used for the SGLT2 inhibition assay.
# CHOK1 cells expressing human SGLT2 were seeded in 24-well plates at a density of 400,000 cells/well in F-12 nutrient mixture (Ham's F-12) containing 10% fetal bovine serum, 400 μg/ml Geneticin, 50 units/ml sodium penicillin G (Gibco-BRL) and 50 μg/ml streptomycin sulfate. […] Test compounds were dissolved in DMSO. The final concentration of DMSO was 0.5%. The transport reaction was initiated by addition of 50 μl [^14C]-methyl-α-D-glucopyranoside (^14C-AMG) solution (final concentration, 0.5 mM). After incubation for 2 hours at 37° C., the uptake was stopped by aspiration of the incubation mixture, the cells were washed three times with ice-cold PBS. Then, cells were solubilized with 0.3 N NaOH and aliquots were taken for determination of radioactivity by a liquid scintillation counter. Nonspecific AMG uptake was defined as that which occurred in the presence of 100 μM of phlorizin, a specific inhibitor of sodium-dependent glucose cotransporter. Specific uptake was normalized for the protein concentrations measured by the method of Bradford.
row,Compound,IC50
1,Cc1ccc([C@@H]2O[C@H](CO)[C@@H](O)[C@H](O)[C@H]2O)cc1Cc1ccc(-c2cncs2)s1 [Example 218],2.4 nM
2,OC[C@H]1O[C@@H](c2ccc(Cl)c(Cc3ccc(-n4cccn4)s3)c2)[C@H](O)[C@@H](O)[C@@H]1O [Example 214],1.5 nM

# Tested on: Sprague-Dawley (SD) rats
# Test: Urinary glucose excretion test in rats
# Type: in vivo, rat
# Settings: male SD rats, 30 mg/kg oral gavage, urine collected for 24 hours; daily amount of glucose excreted per individual
# Experimental: 2. Urinary Glucose Excretion Test in Rats Test Compounds:
# Compounds described in the above examples were used for the urinary glucose excretion test in rats.
# 6-week-old male Sprague-Dawley (SD) rats were housed in individual metabolic cages with free access to food and water from 2 days prior to the experiment. On the morning of the experiment, rats were administered vehicle (0.2% carboxymethyl cellulose solution containing 0.2% Tween80) or test compounds (30 mg/kg) by oral gavage at a volume of 10 ml/kg. Then, urine of the rat was collected for 24 hours, and the urine volume was measured. Subsequently, the glucose concentration in urine was quantified using the enzymatic assay kit and the daily amount of glucose excreted in urine per individual was calculated.
row,Compound,Urinary glucose
1,OC[C@H]1O[C@@H](c2ccc(Cl)c(Cc3ccc(-c4cncs4)s3)c2)[C@H](O)[C@@H](O)[C@@H]1O [Example 204],A (A≧2000 mg)
2,OC[C@H]1O[C@@H](c2ccc(Cl)c(Cc3ccc(-c4cccc(Cl)c4)s3)c2)[C@H](O)[C@@H](O)[C@@H]1O [Example 88],B (2000 mg>B≧1000 mg)
3,Cc1ccc([C@@H]2O[C@H](CO)[C@@H](O)[C@H](O)[C@H]2O)cc1Cc1ccc(-c2ccc(OC(F)F)cc2)s1 [Example 237],B (2000 mg>B≧1000 mg)
4,Cc1ccc([C@@H]2O[C@H](CO)[C@@H](O)[C@H](O)[C@H]2O)cc1Cc1ccc(-n2cccn2)s1 [Example 227],B (2000 mg>B≧1000 mg)
5,Cc1nc(-c2ccc(Cc3cc([C@@H]4O[C@H](CO)[C@@H](O)[C@H](O)[C@H]4O)ccc3Cl)s2)cs1 [Example 252],B (2000 mg>B≧1000 mg)
6,OC[C@H]1O[C@@H](c2ccc(Cl)c(Cc3ccc(-c4ccc(F)cc4)s3)c2)[C@H](O)[C@@H](O)[C@@H]1O [Example 70],A (A≧2000 mg)
7,Cc1ccc([C@@H]2O[C@H](CO)[C@@H](O)[C@H](O)[C@H]2O)cc1Cc1ccc(-c2ccc(F)cc2)s1 [Example 84],A (A≧2000 mg)
8,OC[C@H]1O[C@@H](c2ccc(Cl)c(Cc3ccc(-c4ccccc4F)s3)c2)[C@H](O)[C@@H](O)[C@@H]1O [Example 69],B (2000 mg>B≧1000 mg)
9,OC[C@H]1O[C@@H](c2ccc(F)c(Cc3ccc(-c4cccc(F)n4)s3)c2)[C@H](O)[C@@H](O)[C@@H]1O [Example 248],B (2000 mg>B≧1000 mg)
10,COc1ccc2cc(Cc3cc([C@@H]4O[C@H](CO)[C@@H](O)[C@H](O)[C@H]4O)ccc3C)sc2c1 [Example 238],A (A≧2000 mg)
11,COc1ccc(-c2ccc(Cc3cc([C@@H]4O[C@H](CO)[C@@H](O)[C@H](O)[C@H]4O)ccc3C)s2)cn1 [Example 209],B (2000 mg>B≧1000 mg)
12,CCOc1ccc2sc(Cc3cc([C@@H]4O[C@H](CO)[C@@H](O)[C@H](O)[C@H]4O)ccc3C)cc2c1 [Example 231],B (2000 mg>B≧1000 mg)
13,OC[C@H]1O[C@@H](c2ccc(Cl)c(Cc3ccc(-n4cccn4)s3)c2)[C@H](O)[C@@H](O)[C@@H]1O [Example 214],B (2000 mg>B≧1000 mg)
14,Cc1ccc([C@@H]2O[C@H](CO)[C@@H](O)[C@H](O)[C@H]2O)cc1Cc1ccc(-c2ccnc(F)c2)s1 [Example 217],B (2000 mg>B≧1000 mg)
15,Cc1ccc([C@@H]2O[C@H](CO)[C@@H](O)[C@H](O)[C@H]2O)cc1Cc1ccc(-c2cscn2)s1 [Example 210],B (2000 mg>B≧1000 mg)
16,COc1cccc(-c2ccc(Cc3cc([C@@H]4O[C@H](CO)[C@@H](O)[C@H](O)[C@H]4O)ccc3C)s2)n1 [Example 208],A (A≧2000 mg)
17,Cc1ccc([C@@H]2O[C@H](CO)[C@@H](O)[C@H](O)[C@H]2O)cc1Cc1cc2ccc(OCCF)cc2s1 [Example 235],A (A≧2000 mg)
18,OC[C@H]1O[C@@H](c2ccc(Cl)c(Cc3ccc(-c4ccnc(F)c4)s3)c2)[C@H](O)[C@@H](O)[C@@H]1O [Example 216],A (A≧2000 mg)
19,Cc1ccc([C@@H]2O[C@H](CO)[C@@H](O)[C@H](O)[C@H]2O)cc1Cc1ccc(-c2cccc(F)c2)s1 [Example 83],A (A≧2000 mg)
20,Cc1ccc([C@@H]2O[C@H](CO)[C@@H](O)[C@H](O)[C@H]2O)cc1Cc1ccc(-c2cccc(Cl)c2)s1 [Example 89],B (2000 mg>B≧1000 mg)
21,CCOc1ccc(-c2ccc(Cc3cc([C@@H]4O[C@H](CO)[C@@H](O)[C@H](O)[C@H]4O)ccc3C)s2)cc1 [Example 232],B (2000 mg>B≧1000 mg)
22,COc1ccc2sc(Cc3cc([C@@H]4O[C@H](CO)[C@@H](O)[C@H](O)[C@H]4O)ccc3C)cc2c1 [Example 229],B (2000 mg>B≧1000 mg)
23,OC[C@H]1O[C@@H](c2ccc(Cl)c(Cc3ccc(-c4cscn4)s3)c2)[C@H](O)[C@@H](O)[C@@H]1O [Example 207],A (A≧2000 mg)
24,Cc1ccc([C@@H]2O[C@H](CO)[C@@H](O)[C@H](O)[C@H]2O)cc1Cc1cc2cc(OCCF)ccc2s1 [Example 230],A (A≧2000 mg)
25,CCOc1ccc2cc(Cc3cc([C@@H]4O[C@H](CO)[C@@H](O)[C@H](O)[C@H]4O)ccc3C)sc2c1 [Example 228],B (2000 mg>B≧1000 mg)
